Experimental data from US20080118493A1, “Elevated Hedgehog Pathway Activity In Digestive System Tumors, And Methods Of Treating Digestive Sytem Tumors Having Elevated Hedgehog Pathway Activity” (priority 2003, published 2008).

Assays:
[1] = test system: single passage pancreatic cancer xenograft cells; assay: Proliferation (MTS) assay in first passage pancreatic cancer xenograft cells; type: cell-based, human; conditions: 3.0 μM cyclopamine
Text: Cells and tissues: Origins and sources of cells and tissues are described in the Table (below). First passage pancreatic cancer xenografts were derived from freshly harvested pancreaticoduodenectomy specimens as described^14. […] After reaching 25 mm in greatest dimension, xenograft tumors were harvested, minced, and plated into tissue culture vessels in RPMI, 20% Fetal Bovine Serum (FBS) for assays as described below. The diagnosis of frozen samples from gastric and pancreatic adenocarcinoma resections and adjacent normal stomach and pancreas was microscopically confirmed by two pathologists, and RNA was prepared as described^14.

[2] = test system: Hh pathway activity; assay: Hh-responsive luciferase reporter assay in digestive tract tumor cell lines; type: cell-based, human; conditions: cell lines producing detectable PTCH mRNA
Procedure: Hh-responsive reporter assays: Hh-responsive firefly luciferase and control SV-40 Renilla luciferase reporter assays were performed on subconfluent triplicate cultures as described^22. Two days after transfection, cells were cultured for two days in assay media: RPMI-1640 (Bio-Whittaker; Walkersville Md.) supplemented with 0.5% (established cell lines) or 20% (first passage xenografts) fetal bovine serum (FBS) and containing combinations of 5E1 anti-Hh monoclonal antibody, recombinant doubly lipid modified Sonic hedgehog (ShhNp) peptide^12, cyclopamine purified from Veratrum extract, or tomatidine (ICN Pharmaceuticals; Costa Mesa Calif.) at the indicated concentrations.

`CC1=C2C[C@H]3[C@@H](CC=C4C[C@@H](O)CC[C@@]43C)[C@@H]2CC[C@]12O[C@@H]1C[C@H](C)CN[C@H]1[C@H]2C` [cyclopamine] was tested, and the viable cell mass ([1]; PTCH mRNA-expressing xenografts) was “decreased viable cell mass”, the growth ([1]; single passage xenografts lacking PTCH mRNA) was “grew equally well in control and cyclopamine containing media” and the “Hh pathway activity (Hh-inducible luciferase reporter)” value [2] was “inhibited in a dose-dependent manner”.
